For this assay, the system named is CD8+ / CD4+ T cells of donor PBMCs. Briefly: Intracellular cytokine staining (ICS; IFNγ, TNFα, CD107a). It counts as cell-based, human.

Data on 1 sequence can be found in US20220332764A1, “T CELL EPITOPES OF HCMV AND USES OF THEREOF” (EBERHARD KARLS UNIVERSITÄT TÜBINGEN, priority 2019, published 2022).

For the sequence “GLFAVENFL (listed as Human cytomegalovirus) [SEQ ID NO: 4]”, the “T-cell subset mediating the response (ICS)” value is reported as “T-cell response mediated by CD4+ cells”.
